Here are results for 14 compounds from US4329353A (priority 1981, dated 1982).

Each structure is given as a SMILES string. Some results are limits rather than exact numbers.

The first experiment relates to norepinephrine-induced mortality. Briefly: norepinephrine (NOR) test in rats (combined APO-TRY-NOR test). To be noted: Table 1; rat; s.c.; norepinephrine 1.25 mg/kg i.v. 120 min after compound.
For `CC(=O)C1(c2ccc(F)cc2)CCC(N2CCC3(CC2)C(=O)NCN3c2ccc(F)cc2)CC1` (centres unmarked), the “ED50 (NOR)” value was found to be 10 mg/kg.

In the case of `CCCCOC(=O)C1(c2ccc(F)cc2)CCC(N2CCC3(CC2)C(=O)NCN3c2ccc(F)cc2)CC1` (centres unmarked), the “ED50 (NOR)” value was 1.25 mg/kg.

In the case of `CCCOC(=O)C1(c2ccc(F)cc2)CCC(N2CCC3(CC2)C(=O)NCN3c2ccc(F)cc2)CC1` (centres unmarked), the “ED50 (NOR)” value amounted to 1.25 mg/kg. `N#CC1(c2ccc(F)cc2)CCC(N2CCC3(CC2)C(=O)NCN3c2ccccc2)CC1` (centres unmarked): the “ED50 (NOR)” value was determined as 10 mg/kg. Still for that read-out and setting: the figure for `COC1(c2ccc(F)cc2)CCC(N2CCC3(CC2)C(=O)NCN3c2ccc(F)cc2)CC1` (centres unmarked) is 2.5 mg/kg. For the compound `CCOC(=O)C1(c2ccc(F)cc2)CCC(N2CCC3(CC2)C(=O)NCN3c2ccc(F)cc2)CC1` (centres unmarked), the “ED50 (NOR)” value is listed as less than 2.5 mg/kg.

In the case of `CCOC(=O)C1(c2ccc(F)cc2)CCC(N2CCC3(CC2)C(=O)NCN3c2ccccc2)CC1` (centres unmarked), the “ED50 (NOR)” value was found to be 10 mg/kg.

Staying with this experiment, now noted: Table 2; rat; s.c.; norepinephrine 1.25 mg/kg i.v. 120 min after compound.
`N#CCCN1CN(c2ccc(F)cc2)C2(CCN(C3CCC(C#N)(c4ccc(F)cc4)CC3)CC2)C1=O` (centres unmarked): the “ED50 -(NOR)” value came out at 5 mg/kg.

Consider `N#CC1(c2ccc(F)cc2)CCC(N2CCC3(CC2)C(=O)N(CC(N)=O)CN3c2ccc(F)cc2)CC1` (single isomer, unassigned), for which the “ED50 -(NOR)” value turned out to be 1.25 mg/kg. As for `CC(C)N1CN(c2ccc(F)cc2)C2(CCN(C3CCC(C#N)(c4ccc(F)cc4)CC3)CC2)C1=O` (centres unmarked), the “ED50 -(NOR)” value was determined as 10 mg/kg. Turning to `CNC(=O)CN1CN(c2ccc(F)cc2)C2(CCN(C3CCC(C#N)(c4ccc(F)cc4)CC3)CC2)C1=O` (single isomer, unassigned), the “ED50 -(NOR)” value is listed as not above 2.5 mg/kg.

As to `N#CC1(c2ccc(F)cc2)CCC(N2CCC3(CC2)C(=O)N(Cc2ccccc2)CN3c2ccc(F)cc2)CC1` (centres unmarked), the “ED50 -(NOR)” value is recorded as 10 mg/kg.

`COC(=O)C(C)CN1CN(c2ccc(F)cc2)C2(CCN(C3CCC(C#N)(c4ccc(F)cc4)CC3)CC2)C1=O` (single isomer, unassigned): the “ED50 -(NOR)” value was determined as 10 mg/kg. Same read-out and setting: the figure for `CN(C)C(=O)CN1CN(c2ccc(F)cc2)C2(CCN(C3CCC(C#N)(c4ccc(F)cc4)CC3)CC2)C1=O` (single isomer, unassigned) is 5 mg/kg.
